# Patent publication US20030125363A1, “Riluzole and alpha-tocopherol combination” (priority 1998, published 2003)
# Test system: malondialdehyde
smiles,measurement,setting,value
"Nc1nc2ccc(OC(F)(F)F)cc2s1 [RILUZOLE AND PLACEBO, 2-amino-6-trifluoromethoxybenzothiazole]",Δ M3-M0 (plasma malondialdehyde),change of mean value between inclusion and 3 months,0.22 ± 0.40 µM
same,Concentration at M3 (plasma malondialdehyde),"mean value, at 3 months",2.72 ± 0.40 µM
same,Concentration at M0 (plasma malondialdehyde),"mean value, baseline at inclusion M0",2.94 ± 0.40 µM
